# Structures can show the parent of a compound that is named as a salt.
# Assay: Human observed oral migalastat exposures following a single oral dose of 1250 mg
# Settings: in vivo
compound,measurement,setting,value
"OC[C@H]1NC[C@H](O)[C@@H](O)[C@H]1O [migalastat HCl, (2R,3S,4R,5S)-2-(hydroxymethyl) piperdine-3,4,5-triol]",AUC,"Maximum observed individual AUC, single oral dose 1250 mg",116000 ng·h/mL
same,Cmax,"Maximum observed individual Cmax, single oral dose 1250 mg",21900 ng/mL
same,AUC,"Median observed individual AUC, single oral dose 1250 mg",73200 ng·h/mL
same,Cmax,"Median observed individual Cmax, single oral dose 1250 mg",13000 ng/mL
same,AUC,"Minimum observed individual AUC, single oral dose 1250 mg",28900 ng·h/mL
same,Cmax,"Minimum observed individual Cmax, single oral dose 1250 mg",4780 ng/mL
same,AUC,"maximum exposure (AUC), oral administration of 1250 mg",116000 ng·h/mL

# Source: US10155027B2, “Alpha-galactosidase A and 1-deoxygalactonojirimycin co-formulation for the treatment of fabry disease” (Amicus Therapeutics, Inc., priority 2012, dated 2018)
